Earlier results as cited in patent US8512747B2.
Some compounds may have been tested in ways that are not shown here.

Details: transbucchal lozenge

CCC(=O)N(c1ccccc1)C1CCN(CCc2ccccc2)CC1
time of peak plasma concentrations: around 20 minutes
